Assay results as given in publication PMC7000712, “A kinetic method for measuring agonist efficacy and ligand bias using high resolution biosensors and a kinetic data analysis framework” (Scientific Reports, 2020).
Entries after “also recorded” stand apart in the source; their conditions may differ.

Columns and labels:
angiotensin AT1 receptor [1] = assay: Bias ratio, arrestin recruitment over Ca^2+ mobilization (kτ ratio); format: cell-based
Description: The arrestin, DAG and Ca^2+ data are shown in Fig. 5, for a maximally-stimulating concentration of the five ligands (32 μM). It is immediately obvious that curve shapes are different for the pathways - an association exponential curve defines arrestin recruitment (Fig. 5a) and a rise-and-fall curve defines DAG and Ca^2+ signaling (Fig. 5b,c). The kinetic analysis method was designed to handle this scenario - the initial rate can be extracted from different curve shapes[24],[25]. The initial rate of arrestin recruitment was quantified as described above, by multiplying the rate constant by the plateau of the association exponential fit, and the resulting kτ values are in Table 2. For DAG and Ca^2+, a rise-and-fall exponential equation was applied: y=C/kobs1−kobs2(e^−kobs2t−e^−kobs1t) kτ is equal to the value of C in this equation[24],[25]. The equation assumes two regulation mechanisms are in operation, corresponding to the two exponent terms. (These are most likely receptor desensitization and response degradation for DAG, and precursor depletion and response degradation for the shorter-term Ca^2+ response[25]). […]
The final, quantitative step in the bias assessment is the bias ratio calculation. […] In Fig. 6, the bias factor from the kτ ratio was compared with the bias factor calculated previously using a validated method, the operational model approach.

angiotensin AT1 receptor [2] = conditions: cited from earlier work
Excerpt: We next evaluated four synthetic AT1 receptor ligands, SII, TRV120055, TRV120045 and TRV120026[40],[47]. (For clarity, the name of the last three compounds is abbreviated to TRV055, TRV045 and TRV026). These compounds were developed in SAR campaigns aiming to identify biased ligands for the AT1 receptor. […] Numerous methods and scales have been developed and successfully applied[8],[47],[53]–[59]. One approach is to compare ligand efficacy, i.e. the capacity of the agonist-occupied receptor to generate the signal. kτ provides such an efficacy value, being the initial rate of signal generation by the agonist-occupied receptor. Here kτ is used to assess signaling bias of the AT1 receptor ligands described above. These ligands have been reported to vary in their bias ... || The final, quantitative step in the bias assessment is the bias ratio calculation. This was done by dividing the normalized kτ value for arrestin recruitment by that for Ca^2+. […] Three ligands were arrestin-biased, evidenced by their arrestin/Ca^2+ kτ ratio being greater than 1 (3.1, 3.0 and 4.2 for TRV045, TRV026 and SII, Table 2). […] For example, SII is an established arrestin-b ...

angiotensin AT1 receptor [3] = target: T1, angiotensin AT1 receptor (Homo sapiens, UniProt P30556); assay: Arrestin-3 (β-arrestin2) mNeonGreen biosensor recruitment, AT1 receptor, HEK 293 T cells (time course); format: cell-based; design: The unmodified receptor can be used, providing estimates of authentic rather than forced coupling to arrestin; host or cells: HEK 293 T cells, BacMam transduction, CMV promoter
Excerpt: We and others have developed fluorescent biosensors in which intrinsically fluorescent protein sensors have been incorporated. (Three examples used in this study are R-GECO[22] for Ca^2+, Downward DAG for DAG and cADDis for cAMP[21]). The protein sensors have been engineered to be conformationally-sensitive, such that interaction with the signaling molecule of interest changes the optical properties, enabling the interaction to be detected as a change of fluorescence intensity. Since the proteins are intrinsically fluorescent, no chemical tagging or substrate addition is necessary to generate the optical signal. Here this approach was used to develop a biosensor of receptor-arrestin interaction (Fig. 1a).
We used the kτ method to quantify the kinetics of arrestin recruitment of five AT1 receptor ligands with known varying degrees of arrestin recruitment and bias. The method for quantifying kτ is as follows (illustrated schematically in Supplementary Fig. S5). […] From these fits the fitted parameter values were taken for Plateau and kobs. These values were then multiplied together. […] The data were then fit to the sigmoid curve equation, for example the “log(agonist) vs. response–Variable slope” equation in Prism[46]. From this fit kτ was obtained - it is the value of the asymptote. More precisely, kτ is the Plateau x kobs value for a maximally-effective concentration of ligand.
All that is required is a time course of response measurement at a single, maximally-stimulating concentration of ligand (maximally-stimulating at all time points). […] The data were fit to the association exponential equation to determine Plateau and kobs. kτ was then calculated - it is the Plateau multiplied by kobs for a maximally-stimulating concentration of ligand, as explained in the Appendix.
The first biosensors that positioned analyte binding domains in this position used a circularly permuted version of the fluorescent protein, and include the GCaMP and GECO Ca^2+ sensors, the upward and downward DAG sensors, and the caDDis cAMP sensor[21],[22]. More recently it has become clearer that if the termini of the analyte binding domain are close to one another, then the entire binding domain can be inserted into the 7th stave of the fluorescent protein without having to circularly permute the fluorescent protein[60].
HEK 293 T cells were cultured in Eagle’s minimum essential media (EMEM) supplemented with 10% fetal bovine serum (FBS) and penicillin-streptomycin at 37 °C in 5% CO2. For BacMam transduction, cells were resuspended in media at a density of 52,000 cells per 100 μL. […] For each experiment 4.24 × 10^8 viral genes of arrestin virus were added to each well. For multiplex experiments, 4.79 × 10^8 viral genes of the Red DAG sensor or 6.18 × 10^8. Viral genes of the Red cADDis (cAMP) sensor were added with the arrestin sensor. For experiments with the R-GECO sensor, 8.46 × 10^8 viral genes were added to each well. The viruses carrying the AT1 and V2 receptors were added such that 2.12 × 10^8 and 3.04 × 10^8 viral genes went into each well, respectively. For the β2-adrenoceptor experiment, 4.28 × 10^8 viral genes for the receptor and 2.13 × 10^8 viral genes of GPCR kinase 2 were added to each well.

angiotensin AT1 receptor [4] = target: T1, angiotensin AT1 receptor; assay: Diacylglycerol production, Red Downward DAG sensor, AT1 receptor, HEK 293 T cells; format: cell-based; design: The unmodified receptor can be used, providing estimates of authentic rather than forced coupling to arrestin; host or cells: HEK 293 T cells, BacMam transduction, CMV promoter; conditions: 32 μM
Excerpt: (§1) Biased agonism quantification relates the capacity of a ligand to activate one pathway relative to one or more other pathways[9]–[12]. Numerous methods and scales have been developed and successfully applied[8],[47],[53]–[59]. One approach is to compare ligand efficacy, i.e. the capacity of the agonist-occupied receptor to generate the signal. kτ provides such an efficacy value, being the initial rate of signal generation by the agonist-occupied receptor. Here kτ is used to assess signaling bias of the AT1 receptor ligands described above. […] In this study, G-protein signaling and arrestin recruitment was measured using the same fluorescent biosensor assay modality, enabling near-identical conditions to be employed in comparing the pathways. The Gq pathway was quantified at the level of diacylglycerol using the Red Downward DAG sensor[21] (Fig. 5b), and, one step downstream, Ca^2+ mobilization measured using the R-GECO sensor[22] […]
(§2) HEK 293 T cells were cultured in Eagle’s minimum essential media (EMEM) supplemented with 10% fetal bovine serum (FBS) and penicillin-streptomycin at 37 °C in 5% CO2. […] Thirty minutes prior to fluorescence plate reader or imaging experiments, the media in each well was replaced with 150 μL of Dulbecco’s phosphate buffered saline (DPBS) supplemented with Ca^2+ (0.9 mM) and Mg^2+ (0.5 mM). […]

angiotensin AT1 receptor [5] = target: T1, angiotensin AT1 receptor; assay: Ca^2+ mobilization, R-GECO sensor, AT1 receptor, HEK 293 T cells; format: cell-based; design: The unmodified receptor can be used, providing estimates of authentic rather than forced coupling to arrestin; host or cells: HEK 293 T cells, BacMam transduction, CMV promoter; conditions: 32 μM
Excerpt: as §1, §2

[6] = 32 µM, association exponential fit, Supplementary Table S1

## CNCC(=O)N[C@@H](CCCNC(=N)N)C(=O)N[C@H](C(=O)N[C@@H](Cc1ccc(O)cc1)C(=O)N[C@@H](Cc1ccc(O)cc1)C(=O)N[C@@H](Cc1c[nH]cn1)C(=O)N1CCC[C@H]1C(N)=O)C(C)C [TRV026]
Angiotensin AT1 receptor [1]; 32 μM, kτ normalized to AngII for arrestin divided by that for Ca^2+
  Arrestin/Ca^2+ kτ ratio (% AngII ratio): 3.0
Angiotensin AT1 receptor [1]; kτ ratio arrestin/Ca^2+, relative to AngII
  signaling bias, arrestin vs Gq (in words): arrestin-biased
Angiotensin AT1 receptor [2]
  signaling bias, arrestin vs G-protein (in words, literature): biased for arrestin recruitment over G-protein signaling
Angiotensin AT1 receptor [3]; [6]
  Plateau: 0.40 ± 0.01 NFU
  kobs: 0.62 ± 0.08 min⁻¹
Angiotensin AT1 receptor [3]; 32 µM, calculated from kobs (t1/2 = 0.693/kobs)
  t1/2 of arrestin recruitment: 1.15 ± 0.13 min
Angiotensin AT1 receptor [3]; concentration-response method, asymptote of Plateau × kobs vs concentration, mean ± s.e.m., three experiments (SII n = 2), NFU, normalized fluorescence units, HEK 293 T, DPBS, Biotek Synergy Mx
  kτ, initial rate of arrestin recruitment (concentration-response): 0.25 ± 0.03 NFU.min^−1
Angiotensin AT1 receptor [3]; initial rate, kτ method
  arrestin recruitment efficacy at the initial rate (in words): intermediate between that of TRV055 and SII
Angiotensin AT1 receptor [3]; ligand affinity from L50 of Plateau × kobs vs concentration curve, mean ± s.e.m., three experiments (SII n = 2)
  pKA: 6.76 ± 0.05
Angiotensin AT1 receptor [3]; single maximally-stimulating concentration 32 μM, Plateau × kobs, mean ± s.e.m., three experiments (SII n = 2)
  kτ, arrestin (single concentration): 0.25 ± 0.03 NFU.min^−1
Angiotensin AT1 receptor [4]
  DAG response (in words): no response was detectable; also recorded: not detectable
Angiotensin AT1 receptor [5]
  Ca^2+ / G-protein response (in words): Responses to these peptides were observed
Angiotensin AT1 receptor [5]; C of rise-and-fall exponential fit with drift, mean ± s.e.m., three experiments
  kτ, calcium: 0.46 ± 0.08 NFU.min^−1
